Data on 9 compounds can be found in US20240166643A1, “IMIDAZO[1,2-A]PYRIDINE COMPOUNDS AND THEIR USE IN THERAPY” (Imperial College Innovations Limited, priority 2020, published 2024).

Chains of the proteins cited; added tags and fusions are not shown. Lines headed by an entry give the natural chain unless they say otherwise; changes in a name come on top. Residues count along the entry.
UniProt A5K1A2, 1-410: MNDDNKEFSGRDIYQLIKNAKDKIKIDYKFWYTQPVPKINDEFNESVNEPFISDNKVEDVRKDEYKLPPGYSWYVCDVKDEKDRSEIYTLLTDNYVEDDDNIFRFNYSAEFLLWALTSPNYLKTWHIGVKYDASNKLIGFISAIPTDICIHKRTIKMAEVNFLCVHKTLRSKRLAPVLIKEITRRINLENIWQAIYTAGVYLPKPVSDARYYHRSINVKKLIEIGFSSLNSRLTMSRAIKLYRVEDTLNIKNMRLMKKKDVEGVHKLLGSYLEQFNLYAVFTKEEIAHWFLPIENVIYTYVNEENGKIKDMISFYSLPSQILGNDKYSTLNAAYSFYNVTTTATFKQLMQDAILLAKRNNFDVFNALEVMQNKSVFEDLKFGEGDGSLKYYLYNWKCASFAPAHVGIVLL
UniProt P30419: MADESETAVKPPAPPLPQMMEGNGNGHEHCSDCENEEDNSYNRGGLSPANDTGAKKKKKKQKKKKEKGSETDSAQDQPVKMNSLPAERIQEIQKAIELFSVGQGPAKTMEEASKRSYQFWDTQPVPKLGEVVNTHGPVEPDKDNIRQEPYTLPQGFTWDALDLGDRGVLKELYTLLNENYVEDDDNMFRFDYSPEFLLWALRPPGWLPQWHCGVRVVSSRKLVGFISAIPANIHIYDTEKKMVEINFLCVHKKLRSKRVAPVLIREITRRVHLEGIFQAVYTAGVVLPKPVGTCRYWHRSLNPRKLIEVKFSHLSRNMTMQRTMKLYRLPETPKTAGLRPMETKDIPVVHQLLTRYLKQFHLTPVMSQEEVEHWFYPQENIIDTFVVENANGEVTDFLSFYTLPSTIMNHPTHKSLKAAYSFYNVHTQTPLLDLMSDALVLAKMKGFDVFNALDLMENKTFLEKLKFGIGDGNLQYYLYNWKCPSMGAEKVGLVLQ

SMILES strings stand for the structures. Where two headings read alike, the source gives them in different places.

The test system of one data set is BL-41 cells. As to the kind of experiment: Metabolic activity assay (MTS assay) in BL-41 cell line. It is filed as cell-based. The settings on record: Homo sapiens, 72 h. How it is done: Cell Preparation: BL-41 cells (obtained from Cell Services at the Crick Institute; cell type: […] Cell suspensions were prepared by adjusting the cell density to the appropriate concentration (as stated in the Table 7 below) and 50 μL of the cell suspension was transferred to wells B-G in columns 2-11 of a 96-well plate. [table] Assay Procedure: […] After 72 h, 20 μL MTS reagent (G3580, prepared as follows: 200 μL of phenazine methosulfate (PMS) solution was added to 4 ml 3-(4,5-dimethylthiazol-2-yl)-5-(3-carboxymethoxyphenyl)-2-(4-sulfophenyl)-2H-tetrazolium inner salt (MTS) solution (16 mg in 10 ml PBS) and mix thoroughly) was added to each well of the 96-well plate. The plate was incubated at 37° C. for 1 to 4 h and the absorbance per well was measured at 490 nm with an EnVision plate reader. The average absorbance value of the negative control (Puromycin-treated cells) was subtracted from each value and the metabolic activity was calculated as a percentage relative to the positive control (DMSO-treated cells). EC50 values were calculated using GraphPad.
Background: Tetrazolium assays rely on reduction of a dye to a coloured formazan, in cell work by metabolically active cells.

Data set [1] has as its system Plasmodium falciparum 3D7. As to the kind of experiment: SYBR Green assay, Plasmodium falciparum strain 3D7. The settings on record: P. falciparum strain 3D7, 96 h incubation, read-out: Pf EC50 strain 3D7. It is filed as cell-based. The source says:
Assay (g): SYBR Green Assay […] Values were expressed in relative fluorescence units.

A short description of another data set: in vitro. The settings on record: male, Sprague-Dawley, rat, hepatocytes, pH 7.4.
Data set [2] concerns the target Plasmodium vivax (Pv) NMT (Plasmodium vivax (strain Salvador I), UniProt A5K1A2). The experiment in a line: biochemical.
Data set [3] is described as follows: Rat clearance and bioavailability (iv and oral dosing). It is filed as in vivo. The settings on record: male, Sprague-Dawley, cassette dosing of 4 compounds. Here is the method: Half-life times and bioavailability was determined.
Another data set has as its target Human NMT1 (HsNMT1) (Homo sapiens, UniProt P30419).
[4] abbreviates: Plasmodium falciparum, 3D7, 96 h.

One may read the EC50 as the concentration needed to bring the measured effect to its halfway point. As a reminder, the IC50 is the point on the concentration scale where inhibition reaches its midpoint. Low values mean higher potency, high ones lower potency. For the compound `CN1CCCN(c2ncc(F)c(N3CC(C(=O)NC(C)(C)c4cnc5ccccn45)C3)n2)CC1` [Example 56], the values for the 50% effective concentration (EC50) (in the data set with BL-41 cells; in data set [1] (setting [4])) were 800 nM and 25 nM, respectively. This compound returned a half-life at 1 µM in the data set “in vitro” of over 3 h. Further, the IC50 in data set [2] is 3.2 nM.
As usually defined, the bioavailability is dose-corrected exposure relative to a reference, in per cent. Turning to `CN1CCN(c2ncc(Cl)c(N3CCC(C(=O)NC(C)(C)c4cnc5ccccn45)C3)n2)CC1` (stereo not drawn) [Example 76], in data set [3] (in vivo, iv 1 mg/kg, read-out: Rat iv t1/2 (converted)), the half-life is 3 h. Besides, the bioavailability in data set [3] (plasma, oral 5 mg/kg) is 70%. Also, the EC50 in data set [1] stood at 410 nM. Also, the IC50 on Human NMT1 (HsNMT1) is 56 nM.
As for `CN1CCN(c2ncc(Cl)c(N3CC[C@@H](C(=O)NC(C)(C)c4cnc5ccccn45)C3)n2)CC1` [Example 75], the EC50 in data set [1] is over 1000 nM. The half-maximal inhibitory concentration (IC50) stood at 250 nM against Human NMT1 (HsNMT1) and 35 nM in data set [2].
For `CN1CCN(c2ncc(Cl)c(N3CC[C@H](C(=O)NC(C)(C)c4cnc5ccccn45)C3)n2)CC1` [Example 76], the IC50 in data set [2] was 5.2 nM.
Consider `C[C@@H]1CN(c2ncc(Cl)c(N3CC[C@@H](C(=O)NC(C)(C)c4cnc5ccccn45)C3)n2)CCN1C` [Example 99, (3R)-1-{5-chloro-2-[(3R)-3,4-dimethylpiperazin-1-yl]pyrimidin-4-yl}-N-(2-{imidazo[1,2-a]pyridin-3-yl}propan-2-yl)pyrrolidine-3-carboxamide], for which the EC50 in data set [1] (setting [4]) was 140 nM. Further, the values for the IC50 (at Human NMT1 (HsNMT1); in data set [2]) were 28 nM and 15 nM, respectively. Besides, the half-life at 1 µM in “in vitro” came out at 0.497 h.
`COc1cnc(N2CC(C)N[C@@H](C)C2)nc1N1CC(C(=O)NC(C)(C)c2cnc3ccccn23)C1` (stereo partly drawn) [Example 45]: the EC50 in data set [1] (setting [4]) is 150 nM. This compound also had a concentration for half-maximal inhibition (IC50) in data set [2] of 32 nM.
With `COc1cnc(N2C[C@@H](C)N[C@@H](C)C2)nc1N1CC(C(=O)NC(C)(C)c2cnc3ccccn23)C1` [Example 42], in data set [1] (setting [4]), the EC50 came out at 240 nM. The compound further came in with a half-life at 1 µM in the data set “in vitro” of over 3 h. The compound further displayed an IC50 in data set [2] of 19 nM.
Take `C[C@@H]1CN(c2ncc(Cl)c(N3CC[C@H](C(=O)NC(C)(C)c4cnc5ccccn45)C3)n2)CCN1C` [Example 100, (3S)-1-{5-chloro-2-[(3R)-3,4-dimethylpiperazin-1-yl]pyrimidin-4-yl}-N-(2-{imidazo[1,2-a]pyridin-3-yl}propan-2-yl)pyrrolidine-3-carboxamide]: the EC50 in data set [1] (setting [4]) came out at 40 nM. The IC50 against Human NMT1 (HsNMT1) was 19 nM; in data set [2] it was 5.4 nM. The compound also displayed a half-life at 1 µM in “in vitro” of 0.547 h.
As to `CN1CCC(N(C)c2ncc(Cl)c(N3CC(C(=O)NC(C)(C)c4cnc5ccccn45)C3)n2)C1` (stereo not drawn) [Example 59], the EC50 in data set [1] (setting [4]) was found to be 90 nM. In addition, in data set [2], the IC50 amounted to 4.2 nM.
